# Reference: patent publication US20090202428A1, “Use of Dtbz for Imaging Endocrine Pancreas and Beta Cell Mass In Type 1 Diabetes” (priority 2005, published 2009)
# Amino acid sequences for entries named in this document (tags omitted).
# UniProt Q01827, whole entry: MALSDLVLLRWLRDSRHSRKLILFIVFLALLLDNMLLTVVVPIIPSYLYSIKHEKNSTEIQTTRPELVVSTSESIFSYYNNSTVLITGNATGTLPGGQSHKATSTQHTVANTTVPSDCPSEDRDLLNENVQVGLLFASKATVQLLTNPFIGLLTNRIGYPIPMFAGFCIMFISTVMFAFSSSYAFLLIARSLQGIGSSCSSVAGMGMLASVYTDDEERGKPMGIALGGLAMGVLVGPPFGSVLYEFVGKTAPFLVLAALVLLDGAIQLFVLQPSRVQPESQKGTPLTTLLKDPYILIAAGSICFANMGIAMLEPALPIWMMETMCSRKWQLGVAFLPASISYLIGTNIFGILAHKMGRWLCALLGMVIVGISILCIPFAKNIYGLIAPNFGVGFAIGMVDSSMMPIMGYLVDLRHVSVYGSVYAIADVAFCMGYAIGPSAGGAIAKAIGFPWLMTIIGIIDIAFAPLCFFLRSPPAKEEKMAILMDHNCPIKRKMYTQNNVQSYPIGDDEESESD
# Target: T1, VMAT2 expressed by β-cells of the endocrine pancreas (Rattus norvegicus, UniProt Q01827)
# T1 construct: The inventors next targeted VMAT2 expressed by β-cells of the endocrine pancreas with [11C]; DTBZ; from tissue; host or cells: pancreas (beta cells of the islets) of living Lewis rats, normal and STZ-induced diabetic
# Assay: PET imaging with [11C]DTBZ of normal and STZ induced diabetic Lewis rats
# Format: in vivo
smiles,measurement,setting,value
"COc1cc2c(cc1O[11CH3])CCN1CC(CC(C)C)C(O)CC21 (centres unmarked) [[11C]DTBZ, [11C] dihydrotetrabenazine]",reduction of [11C]DTBZ uptake within the region of interest following STZ treatment,"Lewis rats, relative to the total activity in the field, about 300 μCi (+)-α-[11C]DTBZ",20-40%
same,VMAT2 density in pancreata from [11C]DTBZ PET scans,STZ diabetic animals relative to pre-treatment levels and other control animals,"reduced, but not completely ablated"
